Test results taken from PubChem BioAssay AID1565 (Sanford-Burnham Center for Chemical Genomics, 2009).
This is a selection; strong and weak results do not stand in their true shares. Some of these compounds have results that are not shown, active ones among them. Activity calls are given as the source filed them. Rule as the data show it: active = inhibition above about 60%; inactive = the rest.

Chains of the proteins cited; added tags and fusions are not shown.
UniProt Q8TCT1, whole entry: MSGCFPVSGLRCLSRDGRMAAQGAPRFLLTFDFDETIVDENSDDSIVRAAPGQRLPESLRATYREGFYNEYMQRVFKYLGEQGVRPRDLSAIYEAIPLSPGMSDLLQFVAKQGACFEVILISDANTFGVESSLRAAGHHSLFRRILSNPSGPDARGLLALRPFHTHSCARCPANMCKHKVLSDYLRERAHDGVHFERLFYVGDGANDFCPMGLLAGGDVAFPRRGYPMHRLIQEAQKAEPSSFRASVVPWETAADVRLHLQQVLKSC

Target: Phosphoethanolamine/phosphocholine phosphatase (Homo sapiens) (UniProt Q8TCT1)
Test: PubChem AID 1565
Details: recombinant PHOSPHO1, absorbance phosphatase assay; at 13.3 µM; active compounds read high

SMILES | inhibition
COc1cc(C(=O)NCC2(N(C)C)CCCCC2)c([N+](=O)[O-])cc1OC | inactive: 37.1%
CN(C)C1(CNC(=O)c2ccc(Br)cc2)CCCCC1 | inactive: 38.1%
O=C(NCC1(N2CCCCC2)CCCCC1)c1cccc(Cl)c1 | inactive: -4.1%
COc1cccc(C(=O)NCC2(N3CCCCC3)CCCCC2)c1 | inactive: 6.6%
COc1ccc(Cl)cc1C(=O)NCC1(N(C)C)CCCCC1 | inactive: 34%
O=C(OC1CN2CCC1CC2)C(CO)(c1ccccc1)c1ccccc1 (stereo not drawn) | inactive: -3.3%
CN(C)c1cccc(C(=O)NCC2(N(C)C)CCCCC2)c1 | inactive: -1%
COc1ccc(Br)c(C(=O)NCC2(N3CCCCC3)CCCCC2)c1 | inactive: 14.7%
CN1[C@@H]2CC[C@H]1CC(OC(=O)C(O)(c1ccccc1)c1ccccc1)C2 (stereo partly drawn) | inactive: 32.6%
O=C(NCC1(N2CCCCC2)CCCCC1)c1cc([N+](=O)[O-])ccc1Cl | inactive: -3.9%
Cc1ccc(C(=O)NCC2(N3CCCCC3)CCCCC2)cc1 | inactive: -16%
CCN(CC)CC(C)C(C)OC(=O)C(O)(c1ccccc1)c1ccccc1 (stereo not drawn) | inactive: 28.3%
COc1cc(SC)ccc1C(=O)NCC1(N(C)C)CCCCC1 | inactive: 32.6%
CC(C)N1C(=O)CC2(CCN(CCOC(=O)C(O)(c3ccccc3)c3ccccc3)CC2)C1=O | inactive: 3.9%
Cc1ccccc1C(=O)NCC1(N2CCCCC2)CCCCC1 | inactive: 42.1%
CN(C)C1CCCC1OC(=O)C(O)(c1ccccc1)c1ccccc1 (stereo not drawn) | inactive: -0.6%
CN(C)c1ccc(C(=O)NCC2(N(C)C)CCCCC2)cc1 | inactive: 33%
COc1ccc(C(=O)NCC2(N(C)C)CCCCC2)cc1 | inactive: 6.9%
Cc1cc(C(=O)NCC2(N3CCCCC3)CCCCC2)ccc1[N+](=O)[O-] | inactive: 14.6%
CCN1CCCC(OC(=O)C2(O)c3ccccc3C=Cc3ccccc32)C1 (stereo not drawn) | inactive: 9.3%
O=C(NCC1(N2CCCCC2)CCCCC1)c1cccc(Br)c1 | inactive: 23.2%
C=CCN1CCN(CCOC(=O)C(O)(c2ccccc2)c2ccccc2)CC1 | inactive: 44.8%
O=C(NCC1(N2CCCCC2)CCCCC1)c1cc(F)c(F)cc1Cl | inactive: 15.1%
